T1: Biotin-GSAGGSTWGYPFHDGDYLNDE synthetic peptide (human TM4SF4 aa 126-140) (human, N-terminal biotin)
T1 construct: Immobilised on a streptavidin sensor chip as the SPR ligand; also called Biotin-hTM4SF4 aa 126-140; human TM4SF4-peptide (hTM4SF4 aa 126-140)
T1 peptide: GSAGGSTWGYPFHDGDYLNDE


Target: T1, Biotin-GSAGGSTWGYPFHDGDYLNDE synthetic …
Experiment: SPR, Biacore T200, biotin-peptide on streptavidin chip, antibody as analyte, 1:1 binding
Protocol: First, a streptavidin-conjugated sensor chip (Series S Senser Chip SA, Cytiva) was inserted into Biacore T200 (Cytiva), and activation buffer (1M NaCl, 50 mM NaOH) was flowed for 30 seconds, followed by HBS-EP buffer (Cytiva) to induce activation and stabilization of the sensor chip surface. […] The analyze antibodies of each concentration were flowed through the constructed ligand-bound streptavidin conjugated sensor chip at a rate of 30 ul/min for 480 seconds to induce binding, and then HBS-EP buffer solution was flowed at the same time and speed, and the degree to which the analyte antibody was dissociated from the ligand peptide was obtained in the form of a response unit. The association rate (Ka), dissociation rate (Kd), and equilibrium dissociation constant (KD, Kd/Ka) values were calculated using Biacore T200 evaluation software (Cytiva) by excluding the ligand-unbound sensor chip response values obtained in the same manner. As a calculation standard, the mass transfer fitting model for the interaction between the ligand peptide and the analyte antibody was analyzed using 1:1 binding.

Kd [nM]	Binder
24.4	Hz2B7-1.1 humanized anti-TM4SF4 antibody (antibody, human IgG1, V domains shown, Tested as whole IgG from the pdCMV-dhfr vector (human IgG1 heavy constant, human kappa light constant); also called HzE2B7-1.1; HzE2B7-1.1(origin)) VH: EITLKESGPTLVKPTQTLTLTCTFSGFSLSTYGIGVSWIRQPPGKALEWLAHIWWNDNKYYNTALKSRLTITKDTSKNQVVLTMTNMDPVDTATYYCARKEGSSAPFAYWGQGTLVTVSS VL: DIVMTQSPDSLAVSLGERATINCKSSQSLLNSSNQKNYLAWYQQKPGQPPKLLIYFASTRESGVPDRFSGSGSGTDFTLTISLMQAEDVAVYYCQQHYRTPPTFGQGTKVEIK
6.03	Hz2B7-1.2 humanized anti-TM4SF4 antibody (LC N31F) (antibody, V domains shown, Whole IgG, human IgG1 / kappa constant regions from the pdCMV-dhfr vector; only VH and VL are tied to the antibody; also called HzE2B7-1.2; HzE2B7-1.2(LC N31F)) VH: EITLKESGPTLVKPTQTLTLTCTFSGFSLSTYGIGVSWIRQPPGKALEWLAHIWWNDNKYYNTALKSRLTITKDTSKNQVVLTMTNMDPVDTATYYCARKEGSSAPFAYWGQGTLVTVSS VL: DIVMTQSPDSLAVSLGERATINCKSSQSLLFSSNQKNYLAWYQQKPGQPPKLLIYFASTRESGVPDRFSGSGSGTDFTLTISLMQAEDVAVYYCQQHYRTPPTFGQGTKVEIK
81.7	Hz2B7-4.3 humanized anti-TM4SF4 antibody (HC W55Y, LC N31V) (antibody, V domains shown, Whole IgG, human IgG1 / kappa constant regions; also called HzE2B7-4.3; HzE2B7-4.3(HC W55Y, LC N31V)) VH: EITLKESGPTLVKPTQTLTLTCTFSGFSLSTYGIGVSWIRQPPGKALEWLAHIWYNDNKYYNTALKSRLTITKDTSKNQVVLTMTNMDPVDTATYYCARKEGSSAPFAYWGQGTLVTVSS VL: DIVMTQSPDSLAVSLGERATINCKSSQSLLVSSNQKNYLAWYQQKPGQPPKLLIYFASTRESGVPDRFSGSGSGTDFTLTISLMQAEDVAVYYCQQHYRTPPTFGQGTKVEIK

From patent US20240288436A1 (KOREA ATOMIC ENERGY RESEARCH INSTITUTE, published 2024)
